The values that follow come from publication PMC11078990, “Identification and characterization of small molecule inhibitors of the LINE-1 retrotransposon endonuclease” (Nature Communications, 2024).

Sequences of proteins named here, by UniProt entry; tags and fusion partners are left off. Residues count along the entry.
UniProt P27695, whole entry: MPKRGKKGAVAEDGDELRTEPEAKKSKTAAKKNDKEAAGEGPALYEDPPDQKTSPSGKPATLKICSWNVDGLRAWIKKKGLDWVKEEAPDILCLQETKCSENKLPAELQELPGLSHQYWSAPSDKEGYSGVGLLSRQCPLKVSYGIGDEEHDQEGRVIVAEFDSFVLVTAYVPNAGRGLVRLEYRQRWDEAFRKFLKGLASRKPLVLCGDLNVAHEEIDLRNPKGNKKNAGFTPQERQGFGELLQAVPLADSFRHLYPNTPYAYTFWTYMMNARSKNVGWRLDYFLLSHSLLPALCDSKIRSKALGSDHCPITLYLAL
UniProt O00370, 1-239 N5T limits assumed: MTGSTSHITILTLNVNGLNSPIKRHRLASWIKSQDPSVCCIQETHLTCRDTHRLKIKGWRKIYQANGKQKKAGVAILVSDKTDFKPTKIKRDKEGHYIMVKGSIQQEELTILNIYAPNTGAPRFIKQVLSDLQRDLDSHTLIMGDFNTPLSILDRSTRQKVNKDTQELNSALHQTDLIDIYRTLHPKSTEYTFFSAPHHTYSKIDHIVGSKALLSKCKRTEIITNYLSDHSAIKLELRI

For one assay, the target named is APE1 (Homo sapiens, UniProt P27695). Put plainly: APE1 fluorescent oligonucleotide activity assay (abasic site substrate). The format is biochemical.
The next assay deals with EN (Homo sapiens, UniProt O00370, N5T). Nature of the assay: Plasmid nicking EN activity assay. The conditions noted are these: qualitative, agarose gel. The format is biochemical.

Turning to `CCn1c2ccccc2c2cc(/C=N\Nc3cc(C)nc4cc5c(cc34)OCO5)ccc21`, the “Percent APE1 activity, average” value at APE1 (25 µM, Supplementary Fig. 6b, n=3) was 0.1324%. Moreover, on APE1 (compound at 25 μM, Replicate 1), the “APE1 percent activity, Replicate 1” value turned out to be 0.7562%. The “APE1 percent activity, Replicate 2” value at APE1 (compound at 25 μM, Replicate 2) is 0.5127%. For the same compound, the “APE1 percent activity, Replicate 3” value on APE1 (compound at 25 μM, Replicate 3) is 0.1324%. For the same compound, the “APE1 percent activity, average” value at APE1 (compound at 25 μM, average of 3 replicates) is on record as 0.4671%. Further, at APE1 (inhibitors at 25 μM, relative to 0 μM inhibitor control, mean ± s.d., 3 independent experiments), the “APE1 activity (%)” value was determined as 0.5 ± 0.3%. Also, the “Inhibition of EN activity in plasmid nicking assay” value at EN is recorded as “did not inhibit EN activity”.
